About 710 (0.99%) of roughly 72,000 compounds were called active. Listed are the inconclusive results; actives and inactives stand elsewhere. Calls come from the whole dose curve; as a rule, active = well fitted inhibition curve with a large enough effect; inconclusive = small, poorly fitted or top-dose-only effect; inactive = no such curve, though single readings can be large or run the other way.
experiment: qHTS Assay for Inhibitors of the ERK Signaling Pathway using a Homogeneous Screening Assay; settings: HEK293-V1b, vasopressin-stimulated pERK AlphaScreen; note: nearly all actives have a fitted effect of over 55% in size
Potency is the fitted concentration of half-maximal effect.

Compound | Potency
Cc1c2non([O-])c-2c(C)[n+](=O)[n+]1[O-] | inconclusive: 39.8 µM

From PubChem BioAssay AID995 (National Center for Advancing Translational Sciences (NCATS), 2007)
